Assay results reported in publication PMC10451377, “Rationally Designed Pyrimidine Compounds: Promising Novel Antibiotics for the Treatment of Staphylococcus aureus-Associated Bovine Mastitis” (Antibiotics, 2023).

Experiments:
Details in all cases: 24 h
MAC-T cells [1] = experiment: MTT assay; assay type: cell-based, bovine
HepG2 cells [2] = experiment: MTT assay; assay type: cell-based, human
HepG2 cells [3] = experiment: LDH release assay; assay type: cell-based, human
MAC-T cells [4] = experiment: LDH release assay; assay type: cell-based, bovine

O=[N+]([O-])c1ccc(Cl)c2nonc12
CC50 (MAC-T cells [1]): 27.6 µM
CC50 (HepG2 cells [2]): 16.7 µM
CC50 (HepG2 cells [3]): 9.6 µM
CC50 (MAC-T cells [4]): 22.4 µM
